Laboratory results from US8399026B2, “Peptides isolated from spider venom, and uses thereof” (priority 2009, dated 2013).

Protein sequences, listed by entry. Tags and fused reporters are not part of them. Lines headed by an entry give the natural chain unless they say otherwise; changes in a name come on top.
UniProt Q12809: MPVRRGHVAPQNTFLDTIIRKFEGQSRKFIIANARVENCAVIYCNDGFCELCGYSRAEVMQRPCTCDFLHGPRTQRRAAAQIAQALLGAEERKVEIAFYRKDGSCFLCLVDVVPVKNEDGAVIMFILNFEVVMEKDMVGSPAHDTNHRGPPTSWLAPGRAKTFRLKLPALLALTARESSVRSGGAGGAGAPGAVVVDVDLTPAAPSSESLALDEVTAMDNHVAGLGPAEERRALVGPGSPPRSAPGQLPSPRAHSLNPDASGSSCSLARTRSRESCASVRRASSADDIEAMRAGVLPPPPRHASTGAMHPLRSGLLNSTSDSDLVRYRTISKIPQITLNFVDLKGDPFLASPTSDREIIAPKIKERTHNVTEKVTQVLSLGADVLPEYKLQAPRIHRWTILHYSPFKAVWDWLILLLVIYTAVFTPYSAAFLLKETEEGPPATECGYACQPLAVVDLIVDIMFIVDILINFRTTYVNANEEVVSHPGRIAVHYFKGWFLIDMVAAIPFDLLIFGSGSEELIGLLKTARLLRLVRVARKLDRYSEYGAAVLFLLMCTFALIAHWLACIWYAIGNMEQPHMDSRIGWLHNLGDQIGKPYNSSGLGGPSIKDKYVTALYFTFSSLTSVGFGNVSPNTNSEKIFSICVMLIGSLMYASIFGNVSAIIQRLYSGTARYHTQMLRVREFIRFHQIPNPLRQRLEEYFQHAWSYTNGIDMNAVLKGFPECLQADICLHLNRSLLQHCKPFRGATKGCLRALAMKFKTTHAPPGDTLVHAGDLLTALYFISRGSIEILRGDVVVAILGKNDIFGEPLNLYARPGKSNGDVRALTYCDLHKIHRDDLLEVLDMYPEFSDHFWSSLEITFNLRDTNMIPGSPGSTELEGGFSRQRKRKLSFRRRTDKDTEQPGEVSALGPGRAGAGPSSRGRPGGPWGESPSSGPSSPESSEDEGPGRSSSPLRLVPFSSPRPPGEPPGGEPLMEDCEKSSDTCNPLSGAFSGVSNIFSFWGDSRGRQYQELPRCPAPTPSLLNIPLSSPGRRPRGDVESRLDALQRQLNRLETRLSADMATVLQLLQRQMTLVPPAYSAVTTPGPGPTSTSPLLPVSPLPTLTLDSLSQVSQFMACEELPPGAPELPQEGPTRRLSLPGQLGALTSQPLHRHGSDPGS
UniProt Q62968, whole entry: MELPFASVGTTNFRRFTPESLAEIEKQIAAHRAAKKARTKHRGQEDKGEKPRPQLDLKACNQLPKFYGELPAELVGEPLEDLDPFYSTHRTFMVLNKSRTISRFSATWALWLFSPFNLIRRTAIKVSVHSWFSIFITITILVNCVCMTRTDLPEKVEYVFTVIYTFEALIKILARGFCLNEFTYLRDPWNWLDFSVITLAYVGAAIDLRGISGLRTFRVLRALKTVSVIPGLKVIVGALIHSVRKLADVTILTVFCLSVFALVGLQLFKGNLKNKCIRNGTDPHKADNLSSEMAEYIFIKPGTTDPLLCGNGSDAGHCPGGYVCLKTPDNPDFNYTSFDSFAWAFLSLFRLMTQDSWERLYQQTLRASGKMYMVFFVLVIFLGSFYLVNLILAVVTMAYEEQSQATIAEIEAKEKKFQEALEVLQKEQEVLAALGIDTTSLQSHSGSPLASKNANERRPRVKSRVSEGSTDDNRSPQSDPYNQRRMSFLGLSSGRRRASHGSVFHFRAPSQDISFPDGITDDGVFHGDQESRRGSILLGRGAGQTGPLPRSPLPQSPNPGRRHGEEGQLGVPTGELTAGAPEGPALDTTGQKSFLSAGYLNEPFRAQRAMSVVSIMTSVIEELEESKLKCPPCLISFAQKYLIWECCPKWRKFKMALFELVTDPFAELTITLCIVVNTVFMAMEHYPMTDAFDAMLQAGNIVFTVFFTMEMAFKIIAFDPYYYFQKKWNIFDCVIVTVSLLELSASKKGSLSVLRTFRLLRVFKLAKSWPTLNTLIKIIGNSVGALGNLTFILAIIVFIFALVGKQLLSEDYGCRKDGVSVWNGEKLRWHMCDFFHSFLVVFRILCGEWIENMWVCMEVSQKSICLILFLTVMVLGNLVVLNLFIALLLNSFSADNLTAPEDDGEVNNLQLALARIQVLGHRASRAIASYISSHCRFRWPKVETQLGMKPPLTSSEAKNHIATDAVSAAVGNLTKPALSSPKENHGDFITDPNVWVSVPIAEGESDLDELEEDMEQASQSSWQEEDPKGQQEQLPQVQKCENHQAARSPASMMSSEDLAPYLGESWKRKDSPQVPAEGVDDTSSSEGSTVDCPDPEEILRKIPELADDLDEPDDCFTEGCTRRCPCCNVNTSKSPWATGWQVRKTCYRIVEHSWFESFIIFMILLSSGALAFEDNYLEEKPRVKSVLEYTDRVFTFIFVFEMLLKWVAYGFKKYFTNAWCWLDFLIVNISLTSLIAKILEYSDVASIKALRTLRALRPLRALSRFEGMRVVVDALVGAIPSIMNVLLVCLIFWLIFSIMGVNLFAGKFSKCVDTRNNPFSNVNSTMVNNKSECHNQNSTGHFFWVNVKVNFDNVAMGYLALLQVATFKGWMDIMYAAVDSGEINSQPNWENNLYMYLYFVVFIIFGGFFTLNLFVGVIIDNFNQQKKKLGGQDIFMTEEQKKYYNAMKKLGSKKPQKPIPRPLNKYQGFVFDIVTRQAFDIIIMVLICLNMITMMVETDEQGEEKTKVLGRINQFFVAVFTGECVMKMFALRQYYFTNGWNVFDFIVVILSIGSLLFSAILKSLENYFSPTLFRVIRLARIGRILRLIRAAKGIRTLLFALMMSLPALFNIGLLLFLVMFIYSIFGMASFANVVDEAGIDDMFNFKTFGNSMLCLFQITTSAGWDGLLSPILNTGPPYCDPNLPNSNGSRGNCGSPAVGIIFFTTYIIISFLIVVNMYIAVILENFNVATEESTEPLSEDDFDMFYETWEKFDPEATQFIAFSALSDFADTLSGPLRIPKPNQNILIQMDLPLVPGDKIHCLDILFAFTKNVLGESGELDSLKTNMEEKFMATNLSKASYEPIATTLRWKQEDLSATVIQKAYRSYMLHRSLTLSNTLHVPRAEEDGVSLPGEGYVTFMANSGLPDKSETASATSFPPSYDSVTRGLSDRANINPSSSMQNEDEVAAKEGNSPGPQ
UniProt P08104, whole entry: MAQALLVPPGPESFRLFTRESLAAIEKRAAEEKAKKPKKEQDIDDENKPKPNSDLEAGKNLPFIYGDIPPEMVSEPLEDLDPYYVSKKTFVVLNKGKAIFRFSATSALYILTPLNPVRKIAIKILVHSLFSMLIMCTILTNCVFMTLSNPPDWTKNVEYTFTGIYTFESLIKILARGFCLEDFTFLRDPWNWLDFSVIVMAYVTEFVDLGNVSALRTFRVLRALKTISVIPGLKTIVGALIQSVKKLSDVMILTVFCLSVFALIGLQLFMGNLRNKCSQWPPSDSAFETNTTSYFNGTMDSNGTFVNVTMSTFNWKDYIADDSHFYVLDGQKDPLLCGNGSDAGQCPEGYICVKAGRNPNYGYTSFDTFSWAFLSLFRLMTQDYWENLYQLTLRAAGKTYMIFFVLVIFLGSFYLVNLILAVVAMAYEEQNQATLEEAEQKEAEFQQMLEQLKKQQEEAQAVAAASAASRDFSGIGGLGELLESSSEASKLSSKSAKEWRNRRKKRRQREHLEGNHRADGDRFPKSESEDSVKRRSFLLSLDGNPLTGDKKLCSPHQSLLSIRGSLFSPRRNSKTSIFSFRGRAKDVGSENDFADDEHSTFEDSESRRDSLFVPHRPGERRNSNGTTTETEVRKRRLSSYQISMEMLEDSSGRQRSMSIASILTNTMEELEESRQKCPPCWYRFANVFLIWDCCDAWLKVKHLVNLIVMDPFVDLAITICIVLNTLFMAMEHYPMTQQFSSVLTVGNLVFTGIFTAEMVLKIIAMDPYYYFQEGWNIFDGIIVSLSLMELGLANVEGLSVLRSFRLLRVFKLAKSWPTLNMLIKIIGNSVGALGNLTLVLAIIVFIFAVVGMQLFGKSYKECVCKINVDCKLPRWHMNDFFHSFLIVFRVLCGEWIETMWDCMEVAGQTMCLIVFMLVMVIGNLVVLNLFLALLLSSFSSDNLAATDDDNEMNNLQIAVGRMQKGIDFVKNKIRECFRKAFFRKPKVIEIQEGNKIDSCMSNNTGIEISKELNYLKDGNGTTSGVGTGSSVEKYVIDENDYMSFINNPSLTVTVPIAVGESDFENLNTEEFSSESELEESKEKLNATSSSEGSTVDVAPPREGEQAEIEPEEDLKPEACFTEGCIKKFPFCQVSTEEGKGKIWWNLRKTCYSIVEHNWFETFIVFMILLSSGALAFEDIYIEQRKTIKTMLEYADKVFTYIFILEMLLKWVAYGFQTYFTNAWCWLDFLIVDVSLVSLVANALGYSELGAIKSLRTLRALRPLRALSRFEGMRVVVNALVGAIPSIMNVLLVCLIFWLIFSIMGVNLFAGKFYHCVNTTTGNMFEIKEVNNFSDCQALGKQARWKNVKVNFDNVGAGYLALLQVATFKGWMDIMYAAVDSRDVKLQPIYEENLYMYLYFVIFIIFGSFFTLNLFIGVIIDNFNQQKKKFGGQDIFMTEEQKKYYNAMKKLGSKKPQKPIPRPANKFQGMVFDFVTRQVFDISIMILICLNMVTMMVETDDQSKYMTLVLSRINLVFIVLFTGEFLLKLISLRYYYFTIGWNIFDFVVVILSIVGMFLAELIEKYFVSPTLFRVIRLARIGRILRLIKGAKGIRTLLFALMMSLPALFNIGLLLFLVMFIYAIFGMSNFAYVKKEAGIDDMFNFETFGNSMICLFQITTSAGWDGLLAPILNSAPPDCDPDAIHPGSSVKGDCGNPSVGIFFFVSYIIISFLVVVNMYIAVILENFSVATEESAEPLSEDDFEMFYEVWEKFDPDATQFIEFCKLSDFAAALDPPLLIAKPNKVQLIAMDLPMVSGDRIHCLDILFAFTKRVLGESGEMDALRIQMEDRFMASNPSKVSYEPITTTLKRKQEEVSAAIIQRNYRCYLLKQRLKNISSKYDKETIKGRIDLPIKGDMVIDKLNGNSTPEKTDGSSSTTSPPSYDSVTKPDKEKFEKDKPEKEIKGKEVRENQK

What was measured:
[1] = molecular target: hKV11.1 (hERG) channels (Homo sapiens, UniProt Q12809); conditions: for % inhibition (mean ± S.D) of hERG at concentration × 10 IC50 for Nav1.3: each peptide at 10 × its IC50 for Nav1.3; for effect on hERG channel currents: highest dose examined
[2] = tested on: mouse embryonic stem cells derived cardiomyocytes (mES-CM); conditions: for effect on the frequency or the amplitude of action potentials in cardiomyocytes: A 3.8 μM, C 5 μM, D 0.75 μM, E 0.83 μM; for % inhibition (mean ± S.D) of AP frequency in mES-CM & [concentration (μM)]: concentration in brackets in the cell: A 3.75, B 9.00, C 5.00, D 0.75, E 0.83, F 1.00 μM
[3] = tested on: rat DRG neurons; type: cell-based; conditions: for % inhibition (mean ± S.D) of AP in rDRG & [concentration (μM)]: concentration in brackets in the cell: A 5.00, B 0.70, C 5.00, D 0.75, E 0.83, F 1.00 μM; for inhibition of DRG action potentials: dose higher than the IC50 for NaV1.3: A 5 μM, B 0.7 μM, C 5 μM, D 0.75 μM, E 0.83 μM, F 1 μM
[4] = molecular target: T1, rNaV1.8 channels (Rattus norvegicus, UniProt Q62968); test: Blocking of NaV1.8 channel currents, patch clamp, voltage ramp, ND7-23 cells; type: cell-based; conditions: text of Example 3; read-out: apparent IC50, NaV1.8 channels
T1 construct: expressed in transfected cells; host or cells: ND7-23

[5] = molecular target: T2, rNaV1.3 channels (Rattus norvegicus, UniProt P08104); test: cell-based; conditions: for dose response curves of native and synthetic peptides for inhibiting rNaV1.3 channels: HEK cells, each data point average of 3-5 experiments; for IC50: text of Example 3, read-out: apparent IC50, NaV1.3 channels
T2 construct: expressed in transfected cells; host or cells: HEK-293

[6] = tested on: spinal-ligated rats; type: in vivo, rat; conditions: for ipsilateral paw withdrawal threshold compared to vehicle, chronic: Day 21, all time points; for ipsilateral paw withdrawal threshold compared to vehicle, acute: Day 17, data collapsed across 1 and 3 hour time points; for ipsilateral paw withdrawal threshold (PWT), summary: acute or 5-day administration, 1 and 3 hours following administration; for Contralateral paw withdrawal threshold prior to drug administration / Ipsilateral paw withdrawal threshold prior to drug administration: mean ± SEM
Procedure: This study aimed to evaluate the analgesic indications of compound C using the Chung model of neuropathic pain in rats. This study was performed at PsychoGenics, Inc., headquartered at 765 Old Saw Mill River Road, Tarrytown, N.Y.
Male Sprague Dawley rats (100-125 g) from Harlan (Indianapolis, Ind.) were used in the study. Upon receipt, rats were assigned unique identification numbers and were group housed with 3 rats per cage in polycarbonate cages with micro-isolator filter tops. All rats were examined, handled, and weighed prior to initiation of the study to assure adequate health and suitability. During the course of the study, 12/12 light/dark cycles were maintained, with lights on at 7:00 am EST. The room temperature was maintained between 20 and 23° C. with a relative humidity maintained around 50%. Chow and water were provided ad libitum for the duration of the study.
All compounds were administered at a dose volume of 5 ml/kg, q.d. for 5 days (Days 17-21 post-surgery). Reference compound: Gabapentin (100 mg/kg; TRC, Lot No. 1-SWM-154-1) was dissolved in 0.5% carboxy-methylcellulose (CMC) in water and administered orally. Test Compound: Compound C (0.25, 0.625, and 1.25 mg/kg; Lot n/a) was dissolved in distilled H2O to a stock concentration (20×), divided into single-use aliquots, and frozen. On each test day, one aliquot was thawed and diluted 20-fold with PBS (pH 7.2), and used as stock for formulation of test doses. Compound C was administered subcutaneously.
Under general anesthesia with continuous inhalation of isoflurane, surgery was performed with aseptic procedures in surgery unit. The skin at the area of the lower lumber and sacral level of the rat was shaved and disinfected with betadine and alcohol. Sterile ophthalmic ointment was used to lubricate the eyes. Animals were observed continuously for the level of anesthesia, testing for the animal's reflex response to tail or paw pinch and closely monitoring the animal's breathing. A heating pad was used to maintain body temperature at 37° C. while the animals recovered from anesthesia. A left longitudinal incision at the level next to the vertebral column was made and the left paraspinal muscles were separated. The transverse process of L6 was removed and nearby connective tissue cleaned to expose L5 and L6 spinal nerves. After the nerves were isolated and clearly visualized, 4-0 silk threads were used to ligate the left L5. The muscles were sutured with 4-0 silk threads and the wound closed by staples. All rats received an analgesic (buprenorphine, 0.05 mg/kg, s.c.) immediately before and 6 hours after surgery. Each rat was monitored until awake and moving freely around the recovery chamber. Animals were then single-housed for the duration of the study. Rats were allowed to recover for 2 weeks after surgery prior to testing.
Withdrawal from a mechanical stimulus was measured by applying von Frey (VF) filaments of ascending bending force to the plantar surface of the hind paws (ipsilateral and contralateral). A positive response was defined as withdrawal from the von Frey filament. Confirmation of the paw withdrawal threshold (PWT) is tested by assessing the response to the filament above and below the withdrawal response.
Rats were brought to the experimental room and allowed to habituate in the room for one hour prior to testing, and acclimated to the observation chambers for 15 minutes prior to taking PWT measurements.
Pre-operative baseline testing: Prior to surgery, all rats were tested using the VF test.
Post-operative baseline testing: On Day 14 following surgery, baseline responses were taken from all surgically-operated rats, and an ipsilateral PWT greater than 4.5 g was used as an exclusion criterion (13 rats excluded). Rats were subsequently balanced and assigned to treatment groups (n=10 per group) based on their post-op PWT values. […]

[7] = baseline of group assigned to 0.25 mg/kg
[8] = baseline of group assigned to 0.625 mg/kg
[9] = baseline of group assigned to 1.25 mg/kg

Structure (SMILES)	% inhibition (mean ± S.D) of hERG at concentration × 10 IC50 for Nav1.3 [1] [%]	effect on hERG channel currents ([1]; ten times the IC50 for NaV1.3)	effect on the frequency or the amplitude of action potentials in cardiomyocytes ([2]; B 9 μM, F 1 μM)	% inhibition (mean ± S.D) of AP frequency in mES-CM & [concentration (μM)] [2]	% inhibition (mean ± S.D) of AP in rDRG & [concentration (μM)] [3]	inhibition of DRG action potentials [3]	potency range in inhibiting the target channels [5]	dose response curves of native and synthetic peptides for inhibiting rNaV1.3 channels [5]	IC50 [5] [nM]	further results
CSCC[C@@H]1NC(=O)CNC(=O)[C@H](CC(C)C)NC(=O)[C@@H](NC(=O)[C@H](CC(=O)O)NC(=O)[C@@H](N)CC(=O)O)CSSC[C@@H]2NC(=O)[C@@H]3CSSC[C@@H](C(=O)N[C@@H](CCCCN)C(=O)N[C@@H](Cc4ccc(O)cc4)C(=O)N[C@H](C(=O)N[C@@H](CC(C)C)C(N)=O)C(C)C)NC(=O)[C@H](Cc4c[nH]c5ccccc45)NC(=O)[C@H](CCCCN)NC(=O)[C@H](CC(=O)O)NC(=O)[C@H](CCCCN)NC(=O)[C@H](CCCNC(=N)N)NC(=O)[C@H](CC(N)=O)NC(=O)[C@H](CSSC[C@H](NC(=O)[C@H](CO)NC(=O)[C@H](CO)NC(=O)[C@H](Cc4ccccc4)NC1=O)C(=O)N[C@@H](CC(=O)O)C(=O)N1CCC[C@H]1C(=O)N[C@@H](CC(=O)O)C(=O)N[C@@H](CC(N)=O)C(=O)N[C@@H](CC(=O)O)C(=O)N[C@@H](CCCCN)C(=O)N3)NC(=O)[C@H](CCCCN)NC(=O)[C@H](CCCNC(=N)N)NC(=O)CNC(=O)[C@H](CCC(=O)O)NC2=O [Peptide A]	2 ± 2	no effect	no	1 ± 11 [3.75] %	17 ± 10 [5.00] %	inhibited DRG action potentials	micromolar range	overlap completely	1750	IC50 [4]: 2500 nM
CSCC[C@@H]1NC(=O)[C@H](CC(=O)O)NC(=O)CNC(=O)[C@@H]2CSSC[C@H](NC(=O)[C@@H](N)Cc3ccc(O)cc3)C(=O)N[C@@H](CCC(N)=O)C(=O)N[C@@H](CCC(=O)O)C(=O)N[C@@H](Cc3ccccc3)C(=O)N[C@@H](CC(C)C)C(=O)N[C@@H](Cc3c[nH]c4ccccc34)C(=O)N[C@@H]([C@@H](C)O)C(=O)N[C@H]3CSSC[C@H](NC(=O)[C@H](C(C)C)NC1=O)C(=O)N[C@@H](CCCNC(=N)N)C(=O)N[C@@H](CC(C)C)C(=O)N[C@@H](Cc1c[nH]c4ccccc14)C(=O)N[C@H](C(=O)N[C@@H](CCCCN)C(=O)N[C@@H](CCCCN)C(=O)N[C@@H](CCCNC(=N)N)C(=O)N[C@@H](CC(C)C)C(N)=O)CSSC[C@H](NC(=O)[C@H](CCCCN)NC(=O)[C@H](CCCNC(=N)N)NC(=O)[C@H](CCC(=O)O)NC(=O)[C@H](CCC(=O)O)NC(=O)[C@H](CC(=O)O)NC3=O)C(=O)N2 [Peptide B]	25 ± 7.5	minor inhibitory action	affected action potential frequency	35 ± 36 [9.00] %	28 ± 25 [0.70] %	inhibited DRG action potentials	sub-nanomolar range	overlap completely	230	inhibition of hERG ([1]; only at the highest dose examined, ten times the IC50 for NaV1.3): 25%; inhibition of action potentials in cardiomyocytes ([2]; B 9 μM, F 1 μM): about 20%
CC(C)C[C@@H]1NC(=O)[C@@H](NC(=O)[C@H](C)N)CSSC[C@@H]2NC(=O)[C@@H]3CSSC[C@@H](C(=O)N[C@@H](CCCCN)C(=O)N[C@@H](Cc4ccc(O)cc4)C(=O)NCC(=O)N[C@@H](Cc4c[nH]c5ccccc45)C(=O)O)NC(=O)[C@H](Cc4c[nH]c5ccccc45)NC(=O)[C@H](CCCCN)NC(=O)[C@H](Cc4c[nH]cn4)NC(=O)[C@H](CCCCN)NC(=O)[C@H](CCC(N)=O)NC(=O)[C@H](CO)NC(=O)[C@H](CSSC[C@H](NC(=O)[C@H](CCCCN)NC(=O)[C@H](CCC(=O)O)NC(=O)CNC(=O)[C@H](Cc4ccccc4)NC(=O)CNC1=O)C(=O)N[C@@H](CC(N)=O)C(=O)N1CCC[C@H]1C(=O)N[C@@H](CO)C(=O)N[C@@H](CC(N)=O)C(=O)N[C@@H](CC(=O)O)C(=O)N[C@@H](CCCCN)C(=O)N3)NC(=O)[C@H](C(C)C)NC(=O)[C@H](CC(C)C)NC(=O)[C@H](CO)NC(=O)[C@H](CO)NC(=O)[C@H](CO)NC(=O)[C@H](CCCCN)NC2=O [Peptide C]	2 ± 14	no effect	no	16 ± 8 [5.00] %	38 ± 14 [5.00] %	inhibited DRG action potentials	micromolar range	overlap completely	1200	ipsilateral paw withdrawal threshold compared to vehicle, chronic ([6]; 0.625 mg/kg subcutaneously q.d. 5 days): significantly increased; ipsilateral paw withdrawal threshold compared to vehicle, acute ([6]; 0.625 mg/kg subcutaneously): significantly increased; ipsilateral paw withdrawal threshold (PWT), summary ([6]; 0.625 mg/kg): significantly increased; ipsilateral paw withdrawal threshold compared to vehicle, chronic ([6]; 1.25 mg/kg subcutaneously q.d. 5 days): significantly increased; ipsilateral paw withdrawal threshold compared to vehicle, acute ([6]; 1.25 mg/kg subcutaneously): significantly increased; ipsilateral paw withdrawal threshold (PWT), summary ([6]; 1.25 mg/kg): significantly increased; Contralateral paw withdrawal threshold prior to drug administration [6, 7]: 38.50 ± 5.95; Ipsilateral paw withdrawal threshold prior to drug administration [6, 7]: 2.94 ± 0.29; Contralateral paw withdrawal threshold prior to drug administration [6, 8]: 48.70 ± 5.83; Ipsilateral paw withdrawal threshold prior to drug administration [6, 8]: 2.94 ± 0.29; Contralateral paw withdrawal threshold prior to drug administration [6, 9]: 39.60 ± 5.55; Ipsilateral paw withdrawal threshold prior to drug administration [6, 9]: 2.99 ± 0.26; signs of sedation or toxicity ([6]; during pretreatment or testing, gabapentin 100 mg/kg orally, compound C 0.25, 0.625, 1.25 mg/kg subcutaneously): not observed

Like-named read-outs stand apart in the source and are kept apart here.
